For five compounds, IC50 results are on record in patent publication US11905268B2, “Anthranilic acid derivatives and their use in the treatment of human cancers” (UNIVERSITY OF CENTRAL FLORIDA RESEARCH FOUNDATION, INC., priority 2018, dated 2024).

Like-named read-outs stand apart in the source and are kept apart here.

The test system of series [1] is DFMO treated Chinese hamster ovary (CHO) cells. Kind of series: DFMO/spermidine rescue assay in CHO cells (Assay 2). Type of series: cell-based. The note with it: Cricetulus griseus. The protocol: In the reconfirmation assay compounds were run in quadruplicate. […] A PTI compound is expected to block the entry or disrupt the intracellular trafficking of spermidine and inhibit the ability of spermidine to rescue the growth or viability of DFMO treated cells.
DFMO/Spermidine assay Here cells were treated with an inhibitor of polyamine biosynthesis (DFMO) and rescued back to high viability by the presence of exogenous polyamine (spermidine). Putative PTI compounds were screened for their ability to block the entry or intracellular trafficking of exogenous spermidine (or otherwise disrupt the intracellular trafficking of spermidine) by measuring cell viability in the presence of DFMO+spermidine+PTI compound. […] This was followed by adding 10 μL of […] and 5 μM spermidine (FAC 5 mM DFMO and 1 μM spermidine) in assay medium with a Beckman BioRAPTR FRD dispenser or 10 μL of 5 mM DFMO added in assay medium (positive control). […] A PTI compound is expected to block the entry or disrupt the intracellular trafficking of spermidine and inhibit the ability of spermidine to rescue the growth or viability of DFMO treated cells Cytotoxicity

For the next series, the system named is CHO cells. Description: Cytotoxicity screen in CHO cells. Particulars: Chinese hamster, CHO K1 cells. The protocol:
CHO K1 cells were grown in growth medium to 70% confluency and washed in PBS and trypsinized. […] Cells were spun at 100×g for 1 minute and incubated at 37° C. in a humidified CO2 incubator for 24 hours. […] Cellular ATP content was then assayed by adding 3 uL of ATPLite with a Beckman BioRAPTR FRD dispenser and incubated for 10 minutes at room temperature. Plates were spun at 200×g for 1 minute and read on a Perkin Elmer Viewlux multimode plate reader using luminescence mode. This assay was used for testing dose-response of dry powders.
CHO K1 cells were grown in growth medium to 70% confluency and washed in PBS and trypsinized. Cells were plated in assay medium at 10000 cells/mL for 200 cells per well using a Thermo Multidrop Combi in 20 uL into a white Greiner plate. Cells were spun at 100×g for 1 minute and incubated at 37° C. in a humidified CO2 incubator for 24 hours. […] This was followed by adding by 10 μL of assay medium to all wells with a Beckman BioRAPTR FRD dispenser. […] Plates were spun at 200×g for 1 minute and read on a Perkin Elmer Envision for multimode plate reader using luminescence mode. […]
The final compound concentration was either 20 μM or 10 μg/mL (depending upon the compound source). […] Assay 2 then evaluated the ability of the compound to inhibit the uptake of a rescuing dose of Spermidine (Spd, 1 μM) into DFMO-treated CHO cells.

Where [2] appears, read: Table 7, read-out: SAR IC50 DFMO assay.

Consider `COc1ccc(CC(=O)Nc2ccc(N3CCN(c4cc(Cl)ccc4C)CC3)cc2C(=O)O)cc1` [SBI-0754480], for which the IC50 in series [1] (setting [2]) was found to be 25 µM.
For the compound `COc1ccccc1N1CCN(c2ccc(NC(=O)c3ccccc3Cl)c(C(=O)O)c2)CC1` [SBI-0800670], in series [1] (setting [2]), the IC50 came out at 26 µM.
As to `COc1ccc(C(=O)Nc2ccc(N3CCN(c4ccccc4OC)CC3)cc2C(=O)O)cc1` [SBI-0800678], the IC50 in series [1] (Table 4B, read-out: DFMO/CHO IC50) was found to be 26 µM; in series [1] (setting [2]) it was 26 µM.
`COc1ccc(C(=O)Nc2ccc(N3CCN(c4ccccc4)CC3)cc2C(=O)O)cc1` [SBI-0800679]: the IC50 at 48 h in the series with CHO cells turned out to be 17 µM.
Same read-out and setting: then `COc1ccc(C(=O)Nc2ccc(N3CCC(C(N)=O)CC3)cc2C(=O)O)cc1` [SBI-0800693], with 22 µM.
